Reference: paper PMC10344656, “Plasma pharmacokinetics of tigolaner, emodepside, and praziquantel following topical administration of a combination product (Felpreva®) and of intravenous administration of the individual active ingredients in cats” (Current Research in Parasitology & Vector-borne Diseases, 2023)
Like-named read-outs stand apart in the source and are kept apart here.

Experiments:
[1] = cats
[2] = Excretion in urine and faeces after topical Felpreva (Study 3); details: Study 3, topical Felpreva 0.148 ml/kg
[3] = single topical Felpreva 0.148 ml/kg (1x), mean
[4] = Study 1, single topical Felpreva 0.148 ml/kg (1x), n = 10, plasma, geometric mean (geometric CV%)

CC(C)C[C@H]1C(=O)O[C@H](Cc2ccc(N3CCOCC3)cc2)C(=O)N(C)[C@@H](CC(C)C)C(=O)O[C@H](C)C(=O)N(C)[C@@H](CC(C)C)C(=O)O[C@H](Cc2ccc(N3CCOCC3)cc2)C(=O)N(C)[C@@H](CC(C)C)C(=O)O[C@H](C)C(=O)N1C [Emodepside, emodepside]
plasma elimination half-life [1, 3]: 14.5 days

Cn1nc(C(F)(F)C(F)(F)F)c(C(F)(F)F)c1-n1cc(-c2ccc(Cl)c(C(=O)NC3(C#N)CC3)c2)cn1 [Tigolaner, tigolaner]
amount found in urine ([2]; cats, 28 days): Neglectable amounts
route of clearance ([2]; cats, 28 days): mainly cleared via the faeces
cleared via the faeces, share of dose ([2]; cats, within 28 days, HPLC-MS/MS): 54%
renal clearance, share of dose ([2]; cats, within 28 days, urine, HPLC-MS/MS): < 0.5%
administered dose excreted after 28 days, females ([2]; female cats, mainly via faeces): ~53.2%
administered dose excreted after 28 days, males ([2]; male cats, mainly via faeces): approximately 55.5%
AUCinf (total plasma exposure) [1, 4]: 1566 (32.9) mg∗h/l
AUClast [1, 4]: 1516 (32.8) mg∗h/l
Cmax (peak plasma concentration) [1, 4]: 1245.1 (35.6) μg/l
Tmax [1, 4]: 297.0 (40.5) h
Tmax [1, 3]: 12 days
plasma elimination half-life [1, 3]: 24 days
